Target: recombinant unmethylated bovine actin (bovine, UniProt P60712 1-375)
Experiment: MST

Kd: 13.4 µM
B1: NMAD-1 truncation (Δ1–31), NMAD-1(32–291) (domain or fragment)
chain: EDKHVNYKVFIYDHIRQIAIPTTNLNSQSSLEDIIDESTSCQSVSTDGSIEIDGLTLIHNFLSESEESKILNMIDTVEWAQSQSGRRKQDYGPKVNFKHKKVKTDTFVGMPEYADMLLNKMSEYDVKKLGNYQPFEMCNLEYEEVKKSAIEMHQDDMWIWGNRLISINLINGSVMTLSNDNKSFLCYVHMPHRSLLCMADECRYDWKHGVLAHHIRGRRIALTMREAAKDFAEGGELYEKYGAELIRLGNIRVPLSKTSV
